Reference: PubChem BioAssay (NCI)
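Five compound concentrations were applied to cells in 96-well plates for 48 hours; endpoints were derived by simple linear interpolation of the resulting dose-response curve. GI50 = concentration required for 50% inhibition of growth.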

Assays:
Test in all cases: NCI anticancer screen, dose series, 48 h; in the data active = GI50 below about 0.43 µM; inactive = the rest
[1] = test system: NCI/ADR-RES ovarian
[2] = test system: KM12 colon
[3] = test system: OVCAR-3 ovarian
[4] = test system: HS 578T breast
[5] = test system: U251 CNS
[6] = test system: RPMI-8226 leukemia
[7] = test system: HCT-15 colon
[8] = test system: UO-31 renal
[9] = test system: SF-268 CNS
[10] = test system: NCI-H226 lung
[11] = test system: BT-549 breast
[12] = test system: ACHN renal
[13] = test system: CAKI-1 renal
[14] = test system: MCF7 breast
[15] = test system: MDA-N
[16] = test system: NCI-H522 lung
[17] = test system: EKVX NSCLC
[18] = test system: DU-145 prostate
[19] = test system: SR leukemia
[20] = test system: MDA-MB-435
[21] = test system: OVCAR-4 ovarian
[22] = test system: TK-10 renal
[23] = test system: PC-3 prostate
[24] = test system: HOP-92 NSCLC
[25] = test system: HOP-62 NSCLC
[26] = test system: HCC-2998 colon
[27] = test system: SN12C renal
[28] = test system: SK-MEL-5 melanoma
[29] = test system: SK-OV-3 ovarian
[30] = test system: SK-MEL-28 melanoma
[31] = test system: SNB-19 CNS
[32] = test system: NCI-H460 lung
[33] = test system: OVCAR-5 ovarian
[34] = test system: OVCAR-8 ovarian
[35] = test system: A498 renal
[36] = test system: SF-539 CNS
[37] = test system: A549 NSCLC
[38] = test system: SNB-75 CNS
[39] = test system: NCI-H322M lung
[40] = test system: HL-60(TB) leukemia
[41] = test system: HT29 colon
[42] = test system: MDA-MB-231 breast
[43] = test system: SK-MEL-2 melanoma
[44] = test system: LOX IMVI melanoma
[45] = test system: K-562 leukemia
[46] = test system: COLO 205 colon
[47] = test system: CCRF-CEM leukemia
[48] = test system: MOLT-4 leukemia
[49] = test system: SF-295 CNS
[50] = test system: MALME-3M melanoma
[51] = test system: UACC-62 melanoma
[52] = test system: UACC-257 melanoma
[53] = test system: NCI-H23 lung
[54] = test system: T-47D breast
[55] = test system: HCT-116 colon
[56] = test system: 786-0 renal
[57] = test system: M14 melanoma
[58] = test system: SW-620 colon
[59] = test system: RXF 393 renal

Measured: GI50

CN(C(=O)CSc1ccc2ccccc2c1)[C@H]1CCCC[C@H]1N1CCCC1
inactive: [1] 35.4 µM | [2] 37.2 µM | [3] 34 µM | [4] 26.9 µM | [5] 33.6 µM | [6] 22 µM | [7] 31.9 µM | [8] 18.1 µM | [9] 42.2 µM | [10] 18.3 µM | [11] 20.5 µM | [12] 59.6 µM | [13] 41.2 µM | [14] 29.6 µM | [15] 22.4 µM | [16] 19.7 µM | [17] 36.6 µM | [18] > 100 µM | [19] 21.2 µM | [20] 23.4 µM | [21] 32.5 µM | [22] 21.6 µM | [23] 23.9 µM | [24] 28.6 µM | [25] 75.6 µM | [26] 17.1 µM | [27] 34.9 µM | [28] 16.4 µM | [29] 48.5 µM | [30] 37.4 µM | [31] 54.4 µM | [32] 19.6 µM | [33] 18.6 µM | [34] 46.4 µM | [35] 17.5 µM | [36] 16.9 µM | [37] 42 µM | [38] 55 µM | [39] 52.2 µM | [40] 16.8 µM | [41] 14 µM | [42] 23.6 µM | [43] 18.8 µM | [44] 15 µM | [45] 19.2 µM | [46] 18.3 µM | [47] 22.3 µM | [48] 24 µM | [49] 22 µM | [50] 15.3 µM | [51] 19.8 µM | [52] 18.3 µM | [53] 31.9 µM | [54] 29.9 µM | [55] 29.8 µM | [56] 16.7 µM | [57] 15.5 µM | [58] 42.8 µM | [59] 29.5 µM
